Molecular target: Sodium-dependent serotonin transporter (Homo sapiens, UniProt P31645)
Test: Inhibition of [3H]citalopram binding to the serotonin transporter (5-HT) in monkey caudate-putamen.
Type: tissue-based, Cercopithecidae
Settings: target entry is the homologue from another species

Amino acid sequences for entries named in this document (tags omitted).
UniProt P31645, whole entry: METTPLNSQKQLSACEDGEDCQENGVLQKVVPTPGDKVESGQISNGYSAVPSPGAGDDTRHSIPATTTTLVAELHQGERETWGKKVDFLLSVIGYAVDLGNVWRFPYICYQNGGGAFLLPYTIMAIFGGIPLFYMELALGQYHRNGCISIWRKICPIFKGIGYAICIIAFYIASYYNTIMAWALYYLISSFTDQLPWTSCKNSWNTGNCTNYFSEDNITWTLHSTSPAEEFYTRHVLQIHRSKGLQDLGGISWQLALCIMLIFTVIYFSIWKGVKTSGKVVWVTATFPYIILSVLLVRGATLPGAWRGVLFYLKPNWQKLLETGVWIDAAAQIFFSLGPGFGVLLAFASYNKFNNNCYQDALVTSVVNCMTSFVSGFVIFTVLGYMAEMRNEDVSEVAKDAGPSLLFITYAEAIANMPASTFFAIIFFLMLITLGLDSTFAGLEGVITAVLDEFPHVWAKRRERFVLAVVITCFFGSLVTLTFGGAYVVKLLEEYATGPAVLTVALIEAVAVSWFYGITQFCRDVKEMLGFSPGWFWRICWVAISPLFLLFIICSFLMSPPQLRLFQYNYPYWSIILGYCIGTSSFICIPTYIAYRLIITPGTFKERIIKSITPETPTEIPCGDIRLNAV

Row | Structure (SMILES) | IC50
1 | COC(=O)[C@@H]1C2CC[C@H](C[C@@H]1c1ccccc1)N2C (stereo in doubt; 18a) | 2000 nM
2 | COC(=O)C1C(c2ccc(Cl)cc2)CC2CCC1N2C (stereo in doubt; 19c) | 998 nM
